What was measured:
[1] = biological target: Kappa-type opioid receptor (Homo sapiens, UniProt P41145); test: DRUGMATRIX: Opiate kappa (OP2, KOP) radioligand binding (ligand: [3H] Diprenorphine); conditions: hek293
Mu-type opioid receptor = Mu-type opioid receptor (Homo sapiens, UniProt P35372); test: DRUGMATRIX: Opiate mu (OP3, MOP) radioligand binding (ligand: [3H] Diprenorphine); conditions: cho-k1

Amino acid sequences for entries named in this document (tags omitted). A change or cut given only in a name is not applied to a line headed by its entry.
UniProt P41145: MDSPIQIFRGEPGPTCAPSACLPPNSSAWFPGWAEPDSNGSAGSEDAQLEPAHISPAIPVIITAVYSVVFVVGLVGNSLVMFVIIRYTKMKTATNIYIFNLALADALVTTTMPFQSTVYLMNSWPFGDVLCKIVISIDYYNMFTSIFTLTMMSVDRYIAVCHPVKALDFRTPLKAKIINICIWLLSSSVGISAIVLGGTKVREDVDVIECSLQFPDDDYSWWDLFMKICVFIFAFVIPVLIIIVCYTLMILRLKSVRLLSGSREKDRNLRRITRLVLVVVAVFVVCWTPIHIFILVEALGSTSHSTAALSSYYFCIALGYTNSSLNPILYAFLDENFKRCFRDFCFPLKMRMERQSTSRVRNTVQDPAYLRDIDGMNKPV
UniProt P35372, whole entry, looked up: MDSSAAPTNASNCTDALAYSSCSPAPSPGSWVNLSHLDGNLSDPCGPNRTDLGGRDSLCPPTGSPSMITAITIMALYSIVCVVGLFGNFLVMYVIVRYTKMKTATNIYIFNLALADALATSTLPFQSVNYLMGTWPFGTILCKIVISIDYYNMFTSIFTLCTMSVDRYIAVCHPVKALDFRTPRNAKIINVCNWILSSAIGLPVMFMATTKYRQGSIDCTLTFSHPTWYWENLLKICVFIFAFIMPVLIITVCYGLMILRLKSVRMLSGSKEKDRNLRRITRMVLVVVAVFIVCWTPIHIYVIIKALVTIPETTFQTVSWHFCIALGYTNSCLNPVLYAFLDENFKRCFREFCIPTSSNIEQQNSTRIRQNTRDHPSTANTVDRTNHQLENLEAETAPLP

CC(=O)CC(c1ccccc1)c1c(O)c2ccccc2oc1=O (stereo not drawn) [WARFARIN]
Not Active: IC50 [1] | Ki [1] | IC50 (Mu-type opioid receptor) | Ki (Mu-type opioid receptor)

O=C/C=C/c1ccccc1
Not Active: IC50 [1] | Ki [1] | IC50 (Mu-type opioid receptor) | Ki (Mu-type opioid receptor)

CC(C)C[C@H]1C(=O)N2CCC[C@H]2[C@]2(O)O[C@](NC(=O)[C@@H]3C=C4c5cccc6[nH]c(Br)c(c56)C[C@H]4N(C)C3)(C(C)C)C(=O)N12
Not Active: IC50 [1] | Ki [1] | IC50 (Mu-type opioid receptor) | Ki (Mu-type opioid receptor)

Clc1cc2c(cc1Cl)Oc1cc(Cl)c(Cl)cc1O2
Not Active: IC50 [1] | Ki [1] | IC50 (Mu-type opioid receptor) | Ki (Mu-type opioid receptor)

Cc1ccc(/N=C/N(C)/C=N/c2ccc(C)cc2C)c(C)c1
Not Active: IC50 [1] | Ki [1] | IC50 (Mu-type opioid receptor) | Ki (Mu-type opioid receptor)

COP(=O)(OC)OC=C(Cl)Cl [DICHLORVOS]
Not Active: IC50 [1] | Ki [1] | IC50 (Mu-type opioid receptor) | Ki (Mu-type opioid receptor)

CN1C[C@H](C(=O)N[C@]2(C)O[C@@]3(O)[C@@H]4CCCN4C(=O)[C@H](Cc4ccccc4)N3C2=O)C[C@@H]2c3cccc4[nH]cc(c34)C[C@H]21
Not Active: IC50 [1] | Ki [1]

NN
Not Active: IC50 [1] | Ki [1] | IC50 (Mu-type opioid receptor) | Ki (Mu-type opioid receptor)

CC[C@@H](CO)NC(=O)[C@@H]1C=C2c3cccc4[nH]cc(c34)C[C@H]2N(C)C1
Not Active: IC50 [1] | Ki [1] | IC50 (Mu-type opioid receptor) | Ki (Mu-type opioid receptor)

COc1ccc(C[C@H]2NC[C@H](O)[C@H]2OC(C)=O)cc1
Not Active: IC50 [1] | Ki [1] | IC50 (Mu-type opioid receptor) | Ki (Mu-type opioid receptor)

C=C1[C@@H]2CCC3[C@@](CC[C@@H]4[C@H](C(=O)O)C[C@@H](O[C@@H]5O[C@H](CO)[C@@H](OS(=O)(=O)[O-])[C@H](OS(=O)(=O)[O-])[C@H]5OC(=O)CC(C)C)C[C@@]34C)(C2)[C@@H]1O.[K+].[K+] (stereo partly drawn) [ATRACTYLOSIDE]
Not Active: IC50 [1] | Ki [1] | IC50 (Mu-type opioid receptor) | Ki (Mu-type opioid receptor)

C[N+](C)(C)C[C@H](O)CC(=O)[O-]
Not Active: IC50 [1] | Ki [1]

CC1=C2C(=CO[C@H](C)[C@H]2C)C(O)=C(C(=O)O)C1=O
Not Active: IC50 [1] | Ki [1] | IC50 (Mu-type opioid receptor) | Ki (Mu-type opioid receptor)

From ChEMBL document CHEMBL1909046, “DrugMatrix in vitro pharmacology data”
